Patent publication US7671039B2, “Composition containing beta-glucan for prevention and treatment of osteoporosis” (Glucan Corporation, priority 2004, dated 2010)

How the values were obtained:
[1] = system: ddY female mice with ovary extraction; assay: Weight of bone of both thighs in ovary-extracted mice; format: in vivo; conditions: (absolute weight of bone/body weight at sacrifice)×100; FOSA group: Fosamax 10 mg/kg oral, 4 weeks
Procedure: After sacrifice, a weight of bone of both thighs is calculated with g unit. To reduce an error arising from a difference of individual body weight, a weight of bone is calculated with relative weight as following equation. Weight of bone=[(absolute weight of bone/body weight at sacrifice)×100]

[2] = FOSA group: Fosamax 10 mg/kg oral; D: after 1 week of administration

NCCCC(O)(P(=O)(O)O)P(=O)(O)O [FOSA, sodium alendronate]
Relative weight of bone [1]: 0.217 ± 0.015
body weight [2]: 34.46 ± 2.76
